This assay addresses Aromatase (Homo sapiens, UniProt P11511). The experiment in a line: Inhibition of aromatase in human placental microsomes using [1beta-3H]androstenedione as substrate after 15 mins by liquid scintillation counting. Details: species or system Placenta.

Amino acid sequences for entries named in this document (tags omitted). A change or cut given only in a name is not applied to a line headed by its entry.
UniProt P11511: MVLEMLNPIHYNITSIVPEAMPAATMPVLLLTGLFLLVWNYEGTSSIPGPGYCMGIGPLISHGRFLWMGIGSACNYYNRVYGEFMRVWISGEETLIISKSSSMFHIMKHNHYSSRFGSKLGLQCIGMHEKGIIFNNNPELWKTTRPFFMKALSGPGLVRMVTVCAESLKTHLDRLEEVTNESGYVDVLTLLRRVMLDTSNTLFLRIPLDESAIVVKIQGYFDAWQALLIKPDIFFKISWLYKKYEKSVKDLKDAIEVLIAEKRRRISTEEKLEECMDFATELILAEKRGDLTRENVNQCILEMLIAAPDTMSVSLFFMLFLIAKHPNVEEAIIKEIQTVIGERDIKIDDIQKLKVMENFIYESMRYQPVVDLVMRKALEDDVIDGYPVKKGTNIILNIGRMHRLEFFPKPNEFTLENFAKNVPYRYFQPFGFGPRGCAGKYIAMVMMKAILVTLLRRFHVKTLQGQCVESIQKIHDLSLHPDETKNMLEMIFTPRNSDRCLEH

Molecules are shown by their SMILES.

`C[C@]12CCCC=C1CC[C@@H]1[C@@H]2CC[C@]2(C)C(=O)CC[C@@H]12` came in with an IC50 of 135 nM.

Source of the values: ChEMBL document CHEMBL2057175, “New structure-activity relationships of A- and D-ring modified steroidal aromatase inhibitors: design, synthesis, and biochemical evaluation” (J Med Chem, 2012).
